Laboratory results published in patent US10214520B2, “Substituted azaspiro(4.5)decane derivatives” (priority 2014, dated 2019).
Like-named read-outs stand apart in the source and are kept apart here.

Sequences of proteins named here, by UniProt entry; tags and fusion partners are left off. A change or cut given only in a name is not applied to a line headed by its entry.
UniProt P41146: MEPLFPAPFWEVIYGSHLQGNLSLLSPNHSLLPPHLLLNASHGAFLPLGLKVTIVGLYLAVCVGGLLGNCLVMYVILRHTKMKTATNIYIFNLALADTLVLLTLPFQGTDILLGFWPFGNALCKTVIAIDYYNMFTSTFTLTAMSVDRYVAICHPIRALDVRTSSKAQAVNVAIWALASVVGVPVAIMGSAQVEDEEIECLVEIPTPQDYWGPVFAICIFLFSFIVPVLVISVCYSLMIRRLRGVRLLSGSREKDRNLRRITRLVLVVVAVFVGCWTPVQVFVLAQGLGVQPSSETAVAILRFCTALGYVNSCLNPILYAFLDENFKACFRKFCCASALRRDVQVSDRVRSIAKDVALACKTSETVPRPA
UniProt P35372, whole entry, looked up: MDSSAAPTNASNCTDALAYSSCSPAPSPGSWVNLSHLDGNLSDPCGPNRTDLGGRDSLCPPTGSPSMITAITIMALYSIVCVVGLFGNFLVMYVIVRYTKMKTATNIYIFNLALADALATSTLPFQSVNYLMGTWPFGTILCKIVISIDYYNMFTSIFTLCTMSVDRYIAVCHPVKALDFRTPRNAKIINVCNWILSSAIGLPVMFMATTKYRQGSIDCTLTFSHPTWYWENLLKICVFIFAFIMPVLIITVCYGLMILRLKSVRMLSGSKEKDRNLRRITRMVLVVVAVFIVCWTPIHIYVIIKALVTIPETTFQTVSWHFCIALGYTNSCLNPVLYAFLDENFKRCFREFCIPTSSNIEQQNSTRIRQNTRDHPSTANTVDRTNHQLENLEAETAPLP

Assays:
[1] = target: ORL1 receptor (Homo sapiens, UniProt P41146); settings: for ORL1 % Inhibition @ 1 μM / % inhibition (ORL1) [1 μM]: test concentration 1 μM
[2] = target: human μ opiate receptor (Homo sapiens, UniProt P35372); test: μ opiate receptor binding assay with [3H]-naloxone, membrane preparation of CHO-K1 cells (WGA-SPA beads); settings: for MOP % Inhibition @1 μM / % inhibition (μ) [1 μM]: test concentration 1 μM
[3] = read-out: Ki (ORL1) mean [μm], mean

| Compound | Ki ([1]; read-out: ORL1 Ki) [nM] | ORL1 % Inhibition @ 1 μM [1] [%] | Ki ([2]; read-out: MOP Ki) [nM] | MOP % Inhibition @1 μM [2] [%] | Ki [1, 3] [nM] | % inhibition (ORL1) [1 μM] [1] [%] | Ki ([2]; read-out: Ki (μ) mean [μm], mean) [nM] | % inhibition (μ) [1 μM] [2] [%] |
| --- | --- | --- | --- | --- | --- | --- | --- | --- |
| CN(C)[C@]1(c2ccccc2)CC[C@]2(CC1)CC(=O)N(CC(C)(C)C(=O)N1CCOC(CO)C1)C2 (stereo partly drawn) | 220 | 56 | 113 | 87 | – | – | – | – |
| CN(C)[C@]1(c2ccccc2)CC[C@]2(CC1)CC(=O)N(CCCC(N)=O)C2 | 107 | 52 | 125 | 66 | – | – | – | – |
| CN(C)C1(c2ccccc2)CCC2(CCN(C(=O)C(C)(C)C(N)=O)C2)CC1 (stereo not drawn) | 160 | 55 | 56 | 87 | – | – | – | – |
| CN(C)[C@]1(c2ccccc2)CC[C@]2(CC1)CC(=O)N(CC(=O)NCCS(C)(=O)=O)C2 | 71.3 | 70 | 61 | 91 | – | – | – | – |
| cis-4-(8-Dimethylamino-3-oxo-8-phenyl-2-azaspiro[4.5]decan-2-yl)-2,2-dimethyl-butyric acid hydrochloride | 270 | 62 | 485 | 69 | – | – | – | – |
| CN(C)C1(CC2CCCCC2)CCC2(CCN(C(=O)c3ccccc3)C2)CC1 (stereo not drawn) | – | – | – | – | 180 | 55.5 | 4.9 | 96.33 |
| CN(C)C1(C(=O)c2ccccc2)CCC2(CCN(Cc3ccccc3)C2)CC1 (single isomer, unassigned) | – | – | – | – | 460 | 16.5 | – | 61.5 |
| CN(C)[C@]1(c2ccccc2)CC[C@]2(CC1)CC(=O)N(CC(=O)Nc1ccccn1)C2 | 61 | 49 | 5.4 | 99 | – | – | – | – |
| CNC(=O)CN(C)C(=O)CN1C[C@]2(CC[C@@](c3ccccc3)(N(C)C)CC2)CC1=O | 73 | 75 | 86.5 | 83 | – | – | – | – |
| CN(C)C1(c2ccccc2)CCC2(CC1)CC(=O)N(CC(=O)NCC1CCS(=O)(=O)CC1)C2 (stereo not drawn) | – | 15 | – | 61 | – | – | – | – |
| CN(C)[C@]1(c2ccccc2)CC[C@]2(CC1)CC(=O)N(CCCNC(=O)c1cncnc1)C2 | 205 | 51 | 102 | 35 | – | – | – | – |
| CN(C)C1(c2ccccn2)CCC2(CC1)CC(=O)N(CCCC(=O)O)C2 (stereo not drawn) | – | 2 | – | 6 | – | – | – | – |
| CN(C)[C@]1(c2ccccc2)CC[C@]2(CC1)CC(=O)N(CC(=O)NCC(C)(C)C#N)C2 | 65.5 | 86 | 10.8 | 98 | – | – | – | – |
| CN(C)C1(c2ccccc2)CCC2(CCN(C(=O)CCCc3ccccn3)C2)CC1 (stereo not drawn) | 52.3 | 57 | 4.9 | 101 | – | – | – | – |
| CN(C)[C@]1(c2ccccc2)CC[C@]2(CC1)CC(=O)N(c1cnc(C(F)(F)F)nc1)C2 | 2.2 | – | 2 | – | – | – | – | – |
| CN(C)[C@]1(c2ccccc2)CC[C@]2(CC1)CC(=O)N(CC(=O)NCCC(C)(C)O)C2 | 150 | 52 | 205 | 83 | – | – | – | – |
